# Apparent affinities of Ab-95 variants for a coronavirus HR2 peptide

All variants were tested on one target, the spike HR2 peptide PDVDLGDISGINAS (SARS-CoV-2).

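Phage display of a naive human antibody library on the peptide gave the parent. AAYL52 was designed without a model: most single CDR substitutions and a random sample of double and triple ones. Affinity was read by AlphaSeq, a pooled yeast mating assay with surface-displayed partners. The frequency of each diploid, read from paired DNA barcodes, reflects how well the two displayed proteins bind. The ratio of observed to expected reads was calibrated, replicate by replicate, on BCL2-family standards whose Kd was known from biolayer interferometry. There are three technical replicates.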

Ab-95 is the parent antibody, in scFv form: VH, then a 15-residue (Gly4Ser)3 linker, then VL. The heavy chain is unchanged in all variants.
VH: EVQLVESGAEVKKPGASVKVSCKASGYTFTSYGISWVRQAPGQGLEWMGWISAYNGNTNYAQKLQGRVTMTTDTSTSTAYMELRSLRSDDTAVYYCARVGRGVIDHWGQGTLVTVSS
VL: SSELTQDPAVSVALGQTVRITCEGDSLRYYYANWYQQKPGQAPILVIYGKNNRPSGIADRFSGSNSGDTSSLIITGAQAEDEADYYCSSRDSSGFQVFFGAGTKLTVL

The whole VL of each variant is written out. This list gathers variants with a substitution at Y30 (VL, numbered from residue 1). The read-out is the apparent dissociation constant on a log10 scale (nM): the lower, the stronger. Replicates are averaged; those with no signal do not enter the mean. "nd" marks a missing value. The strain was present, yet no cells mated with the target were sequenced in any replicate, which points to weak or no binding. Parent in this assay: reference entry 2.31, copy in this library 2.25.

- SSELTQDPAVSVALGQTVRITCEGDSLGFFYANWYQQKPGQAPILVIYGKNNRPSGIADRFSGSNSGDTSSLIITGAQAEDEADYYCSSRDSSGFQVFFGAGTKLTVL -> 3.03 (3 of 3 replicates)
- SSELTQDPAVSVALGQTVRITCEGDSLRYHYENWYQQKPGQAPILVIYGKNNRPMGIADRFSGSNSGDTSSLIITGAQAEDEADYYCSSRDSSGFQVFFGAGTKLTVL -> 2.06 (3 of 3 replicates)
- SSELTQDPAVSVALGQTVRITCEGDSLRYEYANWYQQKPGQAPILVIYGKNNRPSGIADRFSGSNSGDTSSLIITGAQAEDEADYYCMSRDSSGQQVFFGAGTKLTVL -> 1.58 (3 of 3 replicates)
- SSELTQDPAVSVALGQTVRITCEGDSLRYMYANWYQQKPGQAPILVIYTKPNRPSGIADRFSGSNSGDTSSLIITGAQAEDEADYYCSSRDSSGFQVFFGAGTKLTVL -> 3.93 (1 of 3 replicates)
- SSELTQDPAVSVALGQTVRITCEGDSLRYMLANWYQQKPGQAPILVIYGKNNRPSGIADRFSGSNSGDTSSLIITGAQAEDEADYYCSSRDSSNFQVFFGAGTKLTVL -> 4.90 (1 of 3 replicates)
- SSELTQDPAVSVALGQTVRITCEGDSLRYNYANWYQQKPGQAPILVIYGKNNRPSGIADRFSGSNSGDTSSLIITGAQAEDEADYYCGSRDSSGFQVHFGAGTKLTVL -> 0.52 (3 of 3 replicates)
- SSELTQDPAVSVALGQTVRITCEGDSLRYIYANWYQQKPGQAPILVIYGKNNRPSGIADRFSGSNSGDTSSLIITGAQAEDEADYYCSSRDSHGFQVSFGAGTKLTVL -> 2.51 (3 of 3 replicates)
- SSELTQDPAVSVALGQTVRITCEGDSLRYWKANWYQQKPGQAPILVIYGKNNRPSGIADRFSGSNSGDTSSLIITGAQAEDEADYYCSSRDSSGFQVFFGAGTKLTVL -> 1.94 (3 of 3 replicates)
- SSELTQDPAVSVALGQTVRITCEGDSLRYLYANWYQQKPGQAPILVIYGKNNRPSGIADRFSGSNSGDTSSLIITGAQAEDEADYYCSDRTSSGFQVFFGAGTKLTVL -> 2.44 (3 of 3 replicates)
- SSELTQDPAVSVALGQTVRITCEGDSLRYQYANWYQQKPGQAPILVIYGKNNRPSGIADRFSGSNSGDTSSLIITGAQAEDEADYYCSSRDSSVFKVFFGAGTKLTVL -> 1.09 (3 of 3 replicates)
- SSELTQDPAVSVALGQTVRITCRGDSLRYWYANWYQQKPGQAPILVIYGKNNRPSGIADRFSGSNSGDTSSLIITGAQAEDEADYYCSSRVSSGFQVFFGAGTKLTVL -> 2.91 (3 of 3 replicates)
- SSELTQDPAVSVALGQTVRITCEGDSLRYKYANWYQQKPGQAPILVIYGKNTRPSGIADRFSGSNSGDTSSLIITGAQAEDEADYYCSSRDSSGFQLFFGAGTKLTVL -> 1.38 (3 of 3 replicates)
- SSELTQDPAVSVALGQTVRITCEGDSLRYVYANWYQQKPGQAPILVIYGKNNRPSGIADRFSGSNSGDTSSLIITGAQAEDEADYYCRSRDSSGFQGFFGAGTKLTVL -> 3.18 (2 of 3 replicates)
- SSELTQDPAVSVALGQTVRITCEGDSLRYGYANWYQQKPGQAPILVIYGKNNRPSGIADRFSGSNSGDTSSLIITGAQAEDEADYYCSSRDSSGFQNGFGAGTKLTVL -> 2.45 (1 of 3 replicates)
- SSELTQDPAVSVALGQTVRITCEGDSLRYWYANWYQQKPGQAPILVIYGKNNQPSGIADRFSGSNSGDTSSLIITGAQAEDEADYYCSSRDSSGFWVFFGAGTKLTVL -> nd (0 of 3 replicates)
- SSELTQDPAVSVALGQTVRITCEGDSLRYSCANWYQQKPGQAPILVIYGKNCRPSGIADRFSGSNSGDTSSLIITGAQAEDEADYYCSSRDSSGFQVFFGAGTKLTVL -> 1.47 (3 of 3 replicates)
- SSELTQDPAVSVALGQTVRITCEGDSLRYNYANWYQQKPGQAPILVIYIWNNRPSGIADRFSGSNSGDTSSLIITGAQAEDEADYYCSSRDSSGFQVFFGAGTKLTVL -> 4.64 (2 of 3 replicates)
- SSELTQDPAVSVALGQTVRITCEGDSLRYLYANWYQQKPGQAPILVIYGKNNRESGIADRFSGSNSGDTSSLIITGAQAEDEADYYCCSRDSSGFQVFFGAGTKLTVL -> 3.91 (1 of 3 replicates)
- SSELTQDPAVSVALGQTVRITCEGDSLRYSYANWYQQKPGQAPILVIYGKNNRPSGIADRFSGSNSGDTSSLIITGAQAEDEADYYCSSRDSSGLFVFFGAGTKLTVL -> 2.86 (3 of 3 replicates)
- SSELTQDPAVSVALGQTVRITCEGDSLRYNYANWYQQKPGQAPILVIYGKNLRPSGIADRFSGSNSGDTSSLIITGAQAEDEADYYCSSRDSCGFQVFFGAGTKLTVL -> 2.64 (3 of 3 replicates)
- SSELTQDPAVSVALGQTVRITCEGDSLRYHYANWYQQKPGQAPILVIYQKPNRPSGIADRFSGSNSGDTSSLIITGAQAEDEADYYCSSRDSSGFQVFFGAGTKLTVL -> 3.67 (3 of 3 replicates)
- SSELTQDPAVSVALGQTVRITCSGDSLRYNWANWYQQKPGQAPILVIYGKNNRPSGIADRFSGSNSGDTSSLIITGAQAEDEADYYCSSRDSSGFQVFFGAGTKLTVL -> 0.43 (3 of 3 replicates)
- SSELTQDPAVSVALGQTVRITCEGDSLAYWYANWYQQKPGQAPILVIYGKNNRPSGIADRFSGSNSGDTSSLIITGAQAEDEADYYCSSRDMSGFQVFFGAGTKLTVL -> 3.17 (3 of 3 replicates)
- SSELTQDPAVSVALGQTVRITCEIDSLRYCYANWYQQKPGQAPILVIYQKNNRPSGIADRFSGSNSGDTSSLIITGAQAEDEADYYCSSRDSSGFQVFFGAGTKLTVL -> nd (0 of 3 replicates)
- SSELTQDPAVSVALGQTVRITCEGDSLRYHYANWYQQKPGQAPILVIYGKNNRPSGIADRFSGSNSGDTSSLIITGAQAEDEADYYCSGRDSSGFQVQFGAGTKLTVL -> 2.19 (3 of 3 replicates)

A selection of 4 entries from above:

- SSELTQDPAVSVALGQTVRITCEGDSLRYLYANWYQQKPGQAPILVIYGKNNRPSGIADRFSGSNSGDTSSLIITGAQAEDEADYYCSDRTSSGFQVFFGAGTKLTVL -> 2.44 (3 of 3 replicates)
- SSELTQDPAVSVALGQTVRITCEGDSLGFFYANWYQQKPGQAPILVIYGKNNRPSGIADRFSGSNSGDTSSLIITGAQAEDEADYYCSSRDSSGFQVFFGAGTKLTVL -> 3.03 (3 of 3 replicates)
- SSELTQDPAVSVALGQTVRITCEGDSLRYWKANWYQQKPGQAPILVIYGKNNRPSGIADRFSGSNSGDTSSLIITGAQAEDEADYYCSSRDSSGFQVFFGAGTKLTVL -> 1.94 (3 of 3 replicates)
- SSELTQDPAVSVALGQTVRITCEGDSLRYHYANWYQQKPGQAPILVIYQKPNRPSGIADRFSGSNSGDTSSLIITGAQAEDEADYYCSSRDSSGFQVFFGAGTKLTVL -> 3.67 (3 of 3 replicates)

Nonspecific signal, from three strains lacking the peptide, appeared in 28% of pairings of library AAYL52, centred on 3.91 (5% of these signals below 2.90); values are not corrected for it.

From the AlphaSeq antibody data of Engelhart et al. 2022 (doi:10.1038/s41597-022-01779-4), copy in the FLAb collection.